The IC50 is the concentration that gives 50% inhibition. Higher therefore signals a need for much substance.

The chains behind the UniProt entries cited, without tags or fusion partners. Where a name states a change or a piece, a line headed by the entry shows the natural chain unless it says otherwise.
UniProt P43490: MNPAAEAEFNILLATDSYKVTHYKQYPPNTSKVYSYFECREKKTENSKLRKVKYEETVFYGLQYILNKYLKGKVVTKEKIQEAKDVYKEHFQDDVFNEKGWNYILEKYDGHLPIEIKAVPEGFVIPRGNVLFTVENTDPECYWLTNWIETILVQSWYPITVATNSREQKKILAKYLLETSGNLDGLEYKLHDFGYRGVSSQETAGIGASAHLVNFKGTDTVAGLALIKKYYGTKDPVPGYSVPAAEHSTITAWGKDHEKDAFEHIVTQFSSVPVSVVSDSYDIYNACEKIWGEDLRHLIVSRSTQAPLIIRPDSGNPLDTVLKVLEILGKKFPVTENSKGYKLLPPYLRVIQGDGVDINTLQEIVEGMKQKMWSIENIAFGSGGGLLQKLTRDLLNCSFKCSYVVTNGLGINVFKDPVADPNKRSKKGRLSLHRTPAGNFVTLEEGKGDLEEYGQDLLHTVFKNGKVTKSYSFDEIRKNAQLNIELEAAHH

Each structure is given as a SMILES string.

One test addresses NAMPT (Homo sapiens (Human), UniProt P43490). Nature of the test: Biochemical inhibition assay (NAMPT enzymatic reaction, NMN quantified by mass spectrometry).
Another test has as its system A2780 cells. In words: In-vitro cell proliferation assay (SRB, 72 hours). The note with it: Homo sapiens, A2780, 72 h. It counts as cell-based.

For `O=C(NCC1CC12CCN(C(=O)C1CC1)CC2)c1cc2ccncc2o1` (stereo not shown) [Example 130, N-[[6-(cyclopropanecarbonyl)-6-azaspiro[2.5]octan-2-yl]methyl]furo[2,3-c]pyridine-2-carboxamide], the IC50 against NAMPT and with A2780 cells was 2000 nM throughout.

For the compound `Cc1cccc(C(=O)N2CCC3(CC2)CC3CNC(=O)c2cc3ccncc3o2)n1` (stereo not shown) [Example 234, N-[(6-(6-methylpyridine-2-carbonyl)-6-azaspiro[2.5]octan-2-yl]methyl]furo[2,3-c]pyridine-2-carboxamide], the IC50 against NAMPT was 161 nM; with A2780 cells, 164 nM.

On to `Cc1nc(COc2ccc(C(=O)N3CCC4(CC3)CC4CNC(=O)c3cc4ccncc4o3)cc2)no1` (stereo not shown) [Example 244, N-[[6-[4-[(5-methyl-1,2,4-oxadiazol-3-yl)methoxy]benzoyl]-6-azaspiro[2.5]octan-2-yl]methyl]furo[2,3-c]pyridine-2-carboxamide], for which the IC50 against NAMPT turned out to be 26.4 nM; with A2780 cells it was 26.1 nM.

Turning to `Cc1nc2cc(C(=O)N3CCC4(CC3)CC4CNC(=O)c3cc4ccncc4o3)ccc2[nH]1` (stereo not shown) [Example 263, N-[[6-(2-methyl-1H-benzimidazole-5-carbonyl)-6-azaspiro[2.5]octan-2-yl]methyl]furo[2,3-c]pyridine-2-carboxamide], the half-maximal inhibitory concentration (IC50) was found to be 26.5 nM against NAMPT and 25.4 nM in the test on A2780 cells.

For `O=C(NCC1CC12CCN(C(=O)c1cccc3cnccc13)CC2)c1cc2ccncc2o1` (stereo not shown) [Example 268, N-[[6-(isoquinoline-5-carbonyl)-6-azaspiro[2.5]octan-2-yl]methyl]furo[2,3-c]pyridine-2-carboxamide], the IC50 amounted to 69.1 nM at NAMPT and 71.9 nM in the test with A2780 cells.

With `O=C(NCC1CC12CCN(C(=O)c1ccc3ncccc3n1)CC2)c1cc2ccncc2o1` (stereo not shown) [Example 270, N-[[6-(1,5-naphthyridine-2-carbonyl)-6-azaspiro[2.5]octan-2-yl]methyl]furo[2,3-c]pyridine-2-carboxamide], the IC50 on NAMPT and in the test on A2780 cells was 19.2 nM in each case.

As to `CC(=O)CCC(=O)N1CCC2(CC1)CC2CNC(=O)c1cc2ccncc2o1` (stereo not shown) [Example 282, N-[[6-(4-oxopentanoyl)-6-azaspiro[2.5]octan-2-yl)methyl]furo[2,3-c]pyridine-2-carboxamide], the IC50 on NAMPT and in the test with A2780 cells was 2000 nM throughout.

`CC(C)(O)CCC(=O)N1CCC2(CC1)CC2CNC(=O)c1cc2ccncc2o1` (stereo not shown) [Example 283, N-[[6-(4-hydroxy-4-methyl-pentanoyl)-6-azaspiro[2.5]octan-2-yl]methyl]furo[2,3-c]pyridine-2-carboxamide]: the IC50 against NAMPT and with A2780 cells was 362 nM each time.

In the case of `CC(C)(O)CC(=O)N1CCC2(CC1)CC2CNC(=O)c1cc2ccncc2o1` (stereo not shown) [Example 284, N-[[6-(3-hydroxy-3-methyl-butanoyl)-6-azaspiro[2.5]octan-2-yl]methyl]furo[2,3-c]pyridine-2-carboxamide], the IC50 on NAMPT amounted to 106 nM; with A2780 cells it was 105 nM.

On to `O=C(NCC1CC12CCN(C(=O)Cc1ccccn1)CC2)c1cc2cnccc2[nH]1` (stereo not shown) [Example 285, N-[[6-[2-(2-pyridyl)acetyl]-6-azaspiro[2.5]octan-2-yl]methyl]-1H-pyrrolo[3,2-c]pyridine-2-carboxamide], for which the IC50 against NAMPT and in the test on A2780 cells was 2000 nM throughout.

Consider `O=C(Cc1cnccn1)N1CCC2(CC1)CC2CNC(=O)N1Cc2ccncc2C1` (stereo not shown) [Example 287, N-[[6-(2-pyrazin-2-ylacetyl)-6-azaspiro[2.5]octan-2-yl]methyl]-1,3-dihydropyrrolo[3,4-c]pyridine-2-carboxamide], for which the IC50 against NAMPT and in the test with A2780 cells was 24.5 nM throughout.

Take `O=C(CCc1nccs1)N1CCC2(CC1)CC2CNC(=O)N1Cc2ccncc2C1` (stereo not shown) [Example 288, N-[[6-(3-thiazol-2-ylpropanoyl)-6-azaspiro[2.5]octan-2-yl]methyl]-1,3-dihydiopyrrolo[3,4-c]pyridine-2-carboxamide]: the concentration for half-maximal inhibition (IC50) on NAMPT and with A2780 cells was 60.6 nM throughout.

Consider `O=C(COc1ccccc1)N1CCC2(CC1)CC2CNC(=O)N1Cc2ccncc2C1` (stereo not shown) [Example 289, N-[[6-(2-phenoxyacetyl)-6-azaspiro[2.5]octan-2-yl]methyl]-1,3-dihydropyrrolo[3,4-c]pyridine-2-carboxamide], for which the IC50 at NAMPT and in the test on A2780 cells was 9.99 nM each time.

For the compound `Cc1n[nH]c(C)c1C(=O)N1CCC2(CC1)CC2CNC(=O)N1Cc2ccncc2C1` (stereo not shown) [Example 292, N-[[6-(3,5-dimethyl-1H-pyrazole-4-carbonyl)-6-azaspiro[2.5]octan-2-yl]methyl]-1,3-dihydropyrrolo[3,4-c)pyridine-2-carboxamide], the IC50 on NAMPT and in the test on A2780 cells was 693 nM in each case.

On to `Cc1nn(C)c(C)c1C(=O)N1CCC2(CC1)CC2CNC(=O)c1cc2cnccc2[nH]1` (stereo not shown) [Example 293, N-[[6-(1,3,5-trimethylpyrazole-4-carbonyl)-6-azaspiro[2.5]octan-2-yl]methyl]-1H-pyrrolo[3,2-c]pyridine-2-carboxamide], for which the IC50 on NAMPT and in the test with A2780 cells was 59.3 nM throughout.

On to `CC(=O)N1CCC(n2cc(C(=O)N3CCC4(CC3)CC4CNC(=O)c3cc4ccncc4o3)cn2)C1` (stereo not shown) [Example 304, N-[[6-[1-(1-acetylpyrrolidin-3-yl)pyrazole-4-carbonyl]-6-azaspiro[2.5]octan-2-yl]methyl]furo[2,3-c]pyridine-2-carboxamide], for which the IC50 at NAMPT is 31.3 nM; in the test with A2780 cells, 32.9 nM.

In the case of `O=C(Cc1nccs1)N1CCC2(CC1)CC2CNC(=O)N1Cc2ccncc2C1` (stereo not shown) [Example 359, N-[[6-(2-thiazol-2-ylacetyl)-6-azaspiro[2.5]octan-2-yl]methyl]-1,3-dihydropyrrolo[3,4-c]pyridine-2-carboxamide], the IC50 amounted to 20.8 nM on NAMPT and 21.7 nM in the test with A2780 cells.

For the origin of these results see patent US10730889B2, “Amido spirocyclic amide and sulfonamide derivatives” (Forma TM, LLC, priority 2012, dated 2020).
